Tests used:
[1] = test system: vertebral fractures in osteoporotic post-menopausal women; conditions: three years; 95% C.I.=[0.28, 0.95]
Protocol: VERTEBRAL FRACTURES—Calculations of prevalent and incident categorical vertebral fractures were performed by comparing each patient's baseline vertebral heights with a reference population (prevalent fracture) and with their follow-up heigiits (incident fractures). Only data from the true baselines were used to determine prevalent fractures. Any vertebral height ratio more than three standard deviations below its corresponding population reference value was defined as a prevalent vertebral fracture. An incident fracture was defined as greater than or equal to a 20% reduction from baseline vertebral height, with an absolute decrease of at least 4 mm in any vertebral height between baseline and follow-up.
Postmenopausal women having a “low” lumbar spinal bone mineral density, defined as either a bone mineral density (BMD) of less than or equal to 0.92 g/cm^2 (+ or −0.02 g/cm^2) as measured by Lunar DPX method, or less than or equal to 0.80 g/cm^2 (+ or −0.02 g/cm^2) as measured by the Hologic QDR method are considered to have osteoporosis. […]
Assessment of vertebral fracture and vertebral deformity (SDI) was based on measurements from lateral spine x-rays, blinded to sequence. […] The process of reading the x-rays involved a computerized entry of measurements taken at each of the vertebrae noted on the x-rays, a process known as digitization. […]

[2] = test system: decrease in stature in osteoporotic post-menopausal women; conditions: after three years of treatment; all patients; p=0.005 vs placebo
Source text: Postmenopausal women having a “low” lumbar spinal bone mineral density, defined as either a bone mineral density (BMD) of less than or equal to 0.92 g/cm^2 (+ or −0.02 g/cm^2) as measured by Lunar DPX method, or less than or equal to 0.80 g/cm^2 (+ or −0.02 g/cm^2) as measured by the Hologic QDR method are considered to have osteoporosis. This definition corresponds to a BMD of approximately two and one-half standard deviations below the mean BMD of mature pre-menopausal Caucasian women in the United States. Patients are otherwise in good health based on medical history, a physical examination and a laboratory screening evaluation.
Data was collected on a total of 881 patients from two study groups (cohorts), following virtually identical protocol design and procedures, except that one study was conducted in the United States, and the other was conducted in Canada, Mexico, Europe, Israel, South America, Australia and New Zealand. Data from the two groups was then pooled. […] Additionally, all patients received dietary evaluation and instruction on calcium intake.

NCCCC(O)(P(=O)(O)O)P(=O)(O)O [alendronate, 4-amino-1-hydroxy-butylidene-1,1-bisphosphonate]
relative risk of incident fracture, alendronate-treated versus placebo treated [1]: 0.52
mean change in stature [2]: −3.01 mm
